Earlier results on 2 substances are cited in patent US11568956B2, “Methods for identifying inhibitors of amyloid protein aggregation” (Treventis Corporation, priority 2008, dated 2023).

Protein sequences, listed by entry. Tags and fused reporters are not part of them. Residues count along the entry.
UniProt P05067, 672-711 limits assumed: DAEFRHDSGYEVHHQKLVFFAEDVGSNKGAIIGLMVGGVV

The data set has as its target Aβ (Homo sapiens, UniProt P05067). To be noted: unit not in the table, μM; Masuda test set; read-out: Expt (IC50); cited from earlier work.

The IC50 is the point on the concentration scale where inhibition reaches its midpoint. For Catechin, the IC50 is more than 40 µM.
Consider Catechin gallate, for which the IC50 was 5 µM.
